# Values of other authors as cited in patent US20090069429A1, “Compositions Comprising Alpha-Ketoglutarate and Their Use for Modulating Muscle Performance” (SGP & SONS AB, priority 2006, published 2009).
# Conditions: stated as previously shown; cited from earlier work
smiles,measurement,value
"O=C(O)CCC(=O)C(=O)O [AKG, alpha-ketoglutarate]",phosphate levels in plasma,reduce phosphate levels in plasma
